# Results: patent publication EP0961591B1, “METHOD TO ENHANCE TISSUE AC[…] RADIOLABELED COMPOUNDS” (BOARD OF SUPERVISORS OF LOUISIANA STATE UNIVERSITY AND …, priority 1997, dated 1999)
# Several values for one entry are separate records, joined by “and”; a condition that tells them apart may be missing. Equal entries are not always repeated. Where two headings read alike, the source gives them in different places.
# Test system: tumor in the left side of the neck
# [1] = Bolus Month 1, 179.9 mCi injected, 24 hr after injection
# [2] = Bolus Month 2, 160.6 mCi injected, 24 hr after injection
# [3] = Bolus Month 3, 182.6 mCi injected, 24 hr after injection
# [4] = Bolus Month 4, 169.5 mCi injected, 24 hr after injection
substance,measurement,setting,value
(^111In-DTPA-D-Phe^1)-octreotide [^111In-pentetreotide],External Dose Accumulation,[1],80 mR/hr
same,Ratio,[1],0.4447 mR/hr/mCi
same,External Dose Accumulation,[2],28 mR/hr
same,Ratio,[2],0.1743 mR/hr/mCi
same,External Dose Accumulation,[3],33.20 mR/hr
same,Ratio,[3],0.1818 mR/hr/mCi
same,External Dose Accumulation,[4],27.2 mR/hr
same,Ratio,[4],0.1605 mR/hr/mCi
same,Ratio,"Bolus Month 5, 178.8 mCi injected, 24 hr after injection",0.19 mR/hr/mCi and 0.1924 mR/hr/mCi
same,External Dose Accumulation,"Bolus Month 5, 178.8 mCi injected, 72 hr after injection",19.85 mR/hr
same,External Dose Accumulation,"Bolus Month 5, 178.8 mCi injected, 120 hr after injection",11.46 mR/hr
same,External Dose Accumulation,"Bolus Month 5, 178.8 mCi injected, 216 hr after injection",3.82 mR/hr
same,area under the curve,Infusion 1,"10,398 mR"
same,External Dose Accumulation,"Infusion 1 (over 72 hr, 2.5 mCi/hr), 0 hr from initial infusion",2.0 mR/hr
same,External Dose Accumulation,"Infusion 1 (over 72 hr, 2.5 mCi/hr), 24.5 hr from initial infusion",54.8 mR/hr
same,External Dose Accumulation,"Infusion 1 (over 72 hr, 2.5 mCi/hr), 49 hr from initial infusion",69.7 mR/hr
same,External Dose Accumulation,"Infusion 1 (over 72 hr, 2.5 mCi/hr), 137 hr from initial infusion",32.9 mR/hr
same,External Dose Accumulation,"Infusion 1 (over 72 hr, 2.5 mCi/hr), 161 hr from initial infusion",25 mR/hr
same,External Dose Accumulation,"Infusion 1 (over 72 hr, 2.5 mCi/hr), 185 hr from initial infusion",20 mR/hr
same,External Dose Accumulation,"Infusion 1 (over 72 hr, 2.5 mCi/hr), 214 hr from initial infusion",15.4 mR/hr
same,Maximal Ratio,"Infusion 1, first infusion period (24 hr, 53.52 mCi delivered)",1.028 mR/hr/mCi
same,Maximal Ratio,"Infusion 1, second infusion period (24 hr, 52.62 mCi delivered)",0.6595 mR/hr/mCi
same,Maximal Ratio,"Infusion 1, third infusion period (24 hr, 50.75 mCi delivered)",0.4462 mR/hr/mCi
same,area under the curve,Infusion 2,"37,370 mR"
same,External Dose Accumulation,"Infusion 2 (389.22 mCi total), 0 hr from initial infusion",2 mR/hr
same,External Dose Accumulation,"Infusion 2 (389.22 mCi total), 20 hr from initial infusion",181 mR/hr
same,External Dose Accumulation,"Infusion 2 (389.22 mCi total), 22 hr from initial infusion",171 mR/hr
same,External Dose Accumulation,"Infusion 2 (389.22 mCi total), 47 hr from initial infusion",183 mR/hr
same,External Dose Accumulation,"Infusion 2 (389.22 mCi total), 65 hr from initial infusion",220 mR/hr
same,External Dose Accumulation,"Infusion 2 (389.22 mCi total), 144 hr from initial infusion",81 mR/hr
same,peak activity,"Infusion 2, 189.8 mCi infused in the first 24 hr",220 mR/hour
same,Maximal Ratio,"Infusion 2, first infusion period (20 hr, 189.76 mCi delivered)",1.107 mR/hr/mCi
same,Maximal Ratio,"Infusion 2, second infusion period (22 hr, 108.62 mCi delivered)",0.6703 mR/hr/mCi
same,Maximal Ratio,"Infusion 2, third infusion period (24 hr, 90.84 mCi delivered)",0.5652 mR/hr/mCi
same,area under the curve,Infusion 3,"41,993 mR"
same,External Dose Accumulation,"Infusion 3 (346.49 mCi total), 0 hr from initial infusion",0.68 mR/hr
same,External Dose Accumulation,"Infusion 3 (346.49 mCi total), 2 hr from initial infusion",36 mR/hr
same,External Dose Accumulation,"Infusion 3 (346.49 mCi total), 3 hr from initial infusion",90 mR/hr
same,External Dose Accumulation,"Infusion 3 (346.49 mCi total), 4 hr from initial infusion",144 mR/hr
same,External Dose Accumulation,"Infusion 3 (346.49 mCi total), 8 hr from initial infusion",260 mR/hr
same,External Dose Accumulation,"Infusion 3 (346.49 mCi total), 9 hr from initial infusion",270 mR/hr
same,External Dose Accumulation,"Infusion 3 (346.49 mCi total), 13 hr from initial infusion",400 mR/hr
same,External Dose Accumulation,"Infusion 3 (346.49 mCi total), 16 hr from initial infusion",470 mR/hr
same,External Dose Accumulation,"Infusion 3 (346.49 mCi total), 17 hr from initial infusion",460 mR/hr
same,External Dose Accumulation,"Infusion 3 (346.49 mCi total), 22 hr from initial infusion",380 mR/hr
same,External Dose Accumulation,"Infusion 3 (346.49 mCi total), 23 hr from initial infusion",375 mR/hr
same,External Dose Accumulation,"Infusion 3 (346.49 mCi total), 25 hr from initial infusion",360 mR/hr
same,External Dose Accumulation,"Infusion 3 (346.49 mCi total), 26 hr from initial infusion",350 mR/hr
same,External Dose Accumulation,"Infusion 3 (346.49 mCi total), 29 hr from initial infusion",345 mR/hr
same,External Dose Accumulation,"Infusion 3 (346.49 mCi total), 30 hr from initial infusion",340 mR/hr
same,External Dose Accumulation,"Infusion 3 (346.49 mCi total), 31 hr from initial infusion",335 mR/hr
same,External Dose Accumulation,"Infusion 3 (346.49 mCi total), 40 hr from initial infusion",310 mR/hr
same,External Dose Accumulation,"Infusion 3 (346.49 mCi total), 46 hr from initial infusion",280 mR/hr
same,External Dose Accumulation,"Infusion 3 (346.49 mCi total), 47 hr from initial infusion",275 mR/hr
same,External Dose Accumulation,"Infusion 3 (346.49 mCi total), 67 hr from initial infusion",230 mR/hr
same,External Dose Accumulation,"Infusion 3 (346.49 mCi total), 90 hr from initial infusion",179 mR/hr
same,peak activity,"Infusion 3, 301 mCi infused in the first 24 hr",470 mR/hour
same,Maximal Ratio,"Infusion 3, first infusion period (17 hr, 301.07 mCi delivered)",1.561 mR/hr/mCi
same,highest mR/mCi ratio,"Infusion Dose 1, after the first 24 hr infusion",1.03 mR/mCi
same,area under the curve,bolus injection,"4,030 mR"
